We go through five compounds from PMC5681660 (2017).

One series relates to HBV. To be noted: HepaRG cells infected with HBV; supernatant day 7 to 10.
For series [1] the following is noted: TRIAC 1000 mg, with absorption 67%; ref 7 (supplement); cited from earlier work.
Series [2] addresses T1, human NTCP (Homo sapiens, UniProt Q14973).
T1 sequence (Q14973 1-349): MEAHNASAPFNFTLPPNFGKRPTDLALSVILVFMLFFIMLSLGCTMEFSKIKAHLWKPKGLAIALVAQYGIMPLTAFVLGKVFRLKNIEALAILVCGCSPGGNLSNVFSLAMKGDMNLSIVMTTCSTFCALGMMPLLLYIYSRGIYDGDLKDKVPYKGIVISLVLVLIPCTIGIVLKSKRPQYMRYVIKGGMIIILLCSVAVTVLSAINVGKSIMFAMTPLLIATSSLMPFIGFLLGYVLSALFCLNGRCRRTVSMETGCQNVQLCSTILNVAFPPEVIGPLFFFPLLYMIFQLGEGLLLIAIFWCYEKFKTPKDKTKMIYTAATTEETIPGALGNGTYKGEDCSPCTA
The experiment in a line: Screening taurocholate uptake assay (96-well, [14C]taurocholate, 10 µM drug).

Series [3] addresses T1, human NTCP. The experiment in a line: Screening fluorescent competitive Myrcludex B-FITC binding assay (96-well, 10 µM drug).

Where a name gives a salt, the structure may show the parent alone. Read-outs that look alike come from different tables or passages of the source.

Regarding `O=C(O)Cc1cc(I)c(Oc2ccc(O)c(I)c2)c(I)c1` [TRIAC, 3,3′,5-Triiodothyroacetic acid], the “concentration effective in reducing HBsAg” value with HBV is no less than 50 µM. For the same compound, the Expected serum concentration in series [1] is 1000 mg ? ~215 µM (with absorption 67%)^7. Thimerosal: at human NTCP [2], the B-score functional assay is reported as 0.511 and the Ranking score was found to be 580.436. Moreover, the B-score binding assay on human NTCP [3] is given as -0.543. At human NTCP [2], `COc1cc2c(c(OC)c1OC)-c1ccc(OC)c(=O)cc1[C@@H](NC(C)=O)CC2` [Colchicine] came in with a Ranking score of 202.531. The B-score binding assay at human NTCP [3] is given as -1.859. As to `CNCCC(Oc1ccc(C(F)(F)F)cc1)c1ccccc1` (stereo not drawn) [Fluoxetine hydrochloride], the B-score functional assay at human NTCP [2] is -1.433. Take Colistin sulfate: the Ranking score at human NTCP [2] (combined ranking of functional and binding screening assays) amounted to 524.583.
